{
  "source": "PubChem BioAssay AID1235",
  "about": "(PCMD, 2008)",
  "note": "The entries are a selection whose mix differs from that of the whole data set. The source made the active and inactive calls.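 The calls were made as follows: active = inhibition above 30% in each of the two pooled mixtures holding the compound, so the lower value exceeds 30%; inactive = the rest.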",
  "data": [
    {"assay": "blockers of serum C3 deposition on LPS – biochemical, ELISA, human serum, orthogonally pooled compounds, primary screen (AID 1235);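 also: 0% = serum in Mg-EGTA without compound and 100% = EDTA serum blank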", "details": "Human serum alternative complement pathway, LPS-coated ELISA, tested in compound mixtures, at 5 µM, hits give high values", "method_in_brief": "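Assay system: human serum alternative complement pathway, C3 deposition on LPS-coated wells; Dosing: 5 µM per compound in ten-compound mixtures; Detection: Anti-C3 ELISA, OD 450 nm; Buffer or medium: Mg2+-EGTA GVB++ buffer containing human serum at 1:15 dilution; Timing: 1 h at 37 °C; Replication: two different pools per compound.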", "values": [
      {"smiles": "N#CC1(Nc2ccccc2)CCN(CCc2ccccc2)CC1", "inhibition": "inactive: 14.8%"},
      {"smiles": "COc1ccc(NC2CCN(CCc3ccccc3)CC2)c(OC)c1", "inhibition": "inactive: 10.1%"},
      {"smiles": "O=C(OC1CN2CCC1CC2)C1c2ccccc2Oc2ccccc21", "note": "(configuration not stated)", "inhibition": "inactive: 6.76%"},
      {"smiles": "CCC(CO)(C(=O)OC1CN2CCC1CC2)c1ccccc1", "note": "(configuration not stated)", "inhibition": "inactive: 9.18%"},
      {"smiles": "CCOc1ncccc1C(=O)NCC1(N2CCOCC2)CCCCC1", "inhibition": "inactive: 12.3%"},
      {"smiles": "Fc1ccccc1NC1CCN(Cc2ccccc2)CC1", "inhibition": "inactive: 5.15%"},
      {"smiles": "N/C(=N\\O)c1c(N)no[n+]1[O-]", "inhibition": "inactive: 11.6%"}
    ]}
  ]
}
